Test results: patent US11021481B2, “Substituted isoindolin-1-ones and 2,3-dihydro-1h-pyrrolo[3,4-c]pyridin-1-ones as HPK1 antagonists” (Nimbus Saturn, Inc., priority 2019, dated 2021)

Protein sequences, listed by entry. Tags and fused reporters are not part of them.
UniProt Q92918, whole entry: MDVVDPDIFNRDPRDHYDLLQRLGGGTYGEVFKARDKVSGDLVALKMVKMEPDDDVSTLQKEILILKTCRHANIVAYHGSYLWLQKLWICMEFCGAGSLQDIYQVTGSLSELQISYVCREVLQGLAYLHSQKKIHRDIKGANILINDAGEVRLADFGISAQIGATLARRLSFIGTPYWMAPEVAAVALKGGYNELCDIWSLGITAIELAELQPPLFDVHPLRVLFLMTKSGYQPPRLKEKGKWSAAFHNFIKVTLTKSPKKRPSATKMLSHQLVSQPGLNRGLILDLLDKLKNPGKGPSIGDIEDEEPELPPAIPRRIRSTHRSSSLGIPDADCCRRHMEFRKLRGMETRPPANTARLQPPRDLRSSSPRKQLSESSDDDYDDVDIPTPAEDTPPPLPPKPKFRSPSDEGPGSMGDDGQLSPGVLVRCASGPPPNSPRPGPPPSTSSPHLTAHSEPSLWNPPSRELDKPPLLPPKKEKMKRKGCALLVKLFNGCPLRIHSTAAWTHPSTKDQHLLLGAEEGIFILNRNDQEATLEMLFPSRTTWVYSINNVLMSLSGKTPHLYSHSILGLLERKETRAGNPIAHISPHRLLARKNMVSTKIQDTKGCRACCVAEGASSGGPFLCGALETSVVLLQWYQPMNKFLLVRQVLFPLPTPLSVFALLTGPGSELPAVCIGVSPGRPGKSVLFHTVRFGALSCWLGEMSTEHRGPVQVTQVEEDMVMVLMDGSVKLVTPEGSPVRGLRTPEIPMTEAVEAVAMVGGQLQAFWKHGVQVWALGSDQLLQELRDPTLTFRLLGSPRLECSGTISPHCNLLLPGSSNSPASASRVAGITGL

Molecular target: HPK1 (Homo sapiens (Human), UniProt Q92918)
Assay: HPK1 biochemical enzyme assay (microfluidic mobility shift assay)
Details: 1.5 nM HPK1, ATP 1 mM final, 30 min preincubation, 60 min at RT, Caliper EZ Reader; read-out: HPK1 1000UMATP caliper IC50
Description: HPK1 biochemical enzyme assay: HPK1 enzyme inhibition was measured using a microfluidic mobility shift assay. […] Test compounds were titrated in ten point curves (top final assay concentration 3 μM), and preincubated with enzyme/substrate mix for 30 min prior to initiation of the reaction by addition of ATP (1 mM final concentration) and substrate (1 μM final concentration; Carna Biosciences) diluted in assay buffer supplemented by MgCl2 (final assay concentration of 5 mM). Following 60 min incubation at RT, the reaction was terminated by addition of 60 µl/well termination buffer (Carna Biosciences) and signal determination using aCaliper EZ Reader (Perkin Elmer, UK).
The compound numbers correspond to the compound numbers in Table 1.

Compound | IC50 [nM]
CN(C)Cc1nc(Nc2ccc(-c3cnn4cc(F)ccc34)c3c2C(=O)NC3)ccc1[C@H]1CCOC1 [I-542, (R)-7-((6-((dimethylamino)-methyl)-5-(tetrahydrofuran-3-yl)pyridin-2-yl)amino)-4-(6-fluoropyrazolo [1,5-a]pyridin-3-yl)isoindolin-1-one] | < 100
CN(C)Cc1nc(Nc2ccc(-c3cnn4cc(F)ccc34)c3c2C(=O)NC3)ccc1[C@@H]1CCOC1 [I-543, (S)-7-((6-((dimethylamino)-methyl)-5-(tetrahydrofuran-3-yl)pyridin-2-yl)amino)-4-(6-fluoropyrazolo [1,5-a]pyridin-3-yl)isoindolin-1-one] | < 100
